{"source": "paper PMC5562305", "about": "“Impact of novel palmitoylated prolactin-releasing peptide analogs on metabolic changes in mice with diet-induced obesity” (PLoS ONE, 2017)", "target": "T1, GPR10 (Homo sapiens, UniProt P49683)", "T1 sequence (P49683 1-370)": "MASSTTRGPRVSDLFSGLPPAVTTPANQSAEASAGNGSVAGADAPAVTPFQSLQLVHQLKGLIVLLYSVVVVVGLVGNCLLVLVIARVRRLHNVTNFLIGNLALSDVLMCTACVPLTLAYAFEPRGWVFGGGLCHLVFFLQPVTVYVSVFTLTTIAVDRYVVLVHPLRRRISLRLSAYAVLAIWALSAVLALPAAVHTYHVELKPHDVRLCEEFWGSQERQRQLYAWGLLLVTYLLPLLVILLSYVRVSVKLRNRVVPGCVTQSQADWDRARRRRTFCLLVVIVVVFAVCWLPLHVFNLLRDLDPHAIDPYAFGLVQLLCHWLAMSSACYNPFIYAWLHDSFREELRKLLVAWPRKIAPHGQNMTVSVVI", "experiment": "Beta-lactamase-dependent FRET assay (bla reporter gene) in CHO-K1 cells overexpressing GPR10", "type": "cell-based", "parameters": "expressed in transfected cells; host or cells: CHO-K1", "conditions": "mean ± SEM of at least three experiments, read-out: Activation of bla reporter gene in GPR10 overexpressing cells, EC50", "protocol": "CHO-K1 cells overexpressing GPR10 were plated at 40,000 cells/well in 128 μl of assay medium (DMEM containing 10% dialyzed FBS, 0.1 mM NEAA, 25 mM HEPES, 1% penicillin/streptomycin, and 2 mM L-glutamine) in a 96-well plate and were incubated for 20 h at 37°C/5% CO2. The assay was performed according to the manufacturer's protocol.\nThe results from the lactamase assay were analyzed using nonlinear regression by log agonist vs. response using GraphPad software.", "data": [{"smiles": "CC[C@H](C)[C@H](NC(=O)CNC(=O)[C@H](CCCNC(=N)N)NC(=O)[C@H](CO)NC(=O)[C@H](C)NC(=O)[C@H](Cc1ccc(O)cc1)NC(=O)[C@H](Cc1c[nH]c2ccccc12)NC(=O)[C@H](C)NC(=O)[C@@H]1CCCN1C(=O)[C@H](CC(N)=O)NC(=O)[C@@H](NC(=O)[C@H](CC(=O)O)NC(=O)[C@@H]1CCCN1C(=O)[C@@H](NC(=O)[C@H](CCCNC(=N)N)NC(=O)[C@@H](NC(=O)[C@H](CCC(=O)O)NC(=O)[C@H](CCSC)NC(=O)[C@H](CO)NC(=O)[C@H](Cc1c[nH]cn1)NC(=O)[C@H](CCCNC(=N)N)NC(=O)[C@H](Cc1c[nH]cn1)NC(=O)[C@@H](NC(=O)[C@H](CCCNC(=N)N)NC(=O)[C@@H](N)CO)[C@@H](C)O)[C@@H](C)CC)[C@@H](C)O)[C@@H](C)CC)C(=O)N[C@@H](CCCNC(=N)N)C(=O)N1CCC[C@H]1C(=O)N[C@H](C(=O)NCC(=O)N[C@@H](CCCNC(=N)N)C(=O)N[C@@H](Cc1ccccc1)C(N)=O)C(C)C", "note": "[human PrRP31, reference compound]", "values": [{"measurement": "EC50", "result": "243 ± 50", "unit": "pM"}]}]}
